The text below walks through data of patent US20130005802A1, “TREATMENT OF WNT/FRIZZLED-RELATED DISEASES” (priority 2009, published 2013).

By UniProt entry, the sequences of proteins in these tests, tags left out. Residues count along the entry.
UniProt Q08463, 69-641: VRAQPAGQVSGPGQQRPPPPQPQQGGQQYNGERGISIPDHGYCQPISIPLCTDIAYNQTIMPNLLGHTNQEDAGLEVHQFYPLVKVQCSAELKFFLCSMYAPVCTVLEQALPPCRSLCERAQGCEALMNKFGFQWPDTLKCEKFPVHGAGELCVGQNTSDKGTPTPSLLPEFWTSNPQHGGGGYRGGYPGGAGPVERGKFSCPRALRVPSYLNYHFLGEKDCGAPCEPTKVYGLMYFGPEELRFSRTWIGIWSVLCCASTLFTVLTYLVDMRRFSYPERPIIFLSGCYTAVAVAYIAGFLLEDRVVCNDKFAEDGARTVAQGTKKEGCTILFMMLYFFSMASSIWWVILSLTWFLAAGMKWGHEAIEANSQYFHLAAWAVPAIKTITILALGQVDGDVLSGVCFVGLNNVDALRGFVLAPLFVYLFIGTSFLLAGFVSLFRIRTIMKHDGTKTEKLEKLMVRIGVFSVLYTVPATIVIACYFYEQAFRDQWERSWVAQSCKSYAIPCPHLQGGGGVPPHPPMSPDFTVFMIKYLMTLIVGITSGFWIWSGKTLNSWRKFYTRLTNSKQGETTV

One assay has as its target Frizzled1-GFP (Rattus norvegicus, UniProt Q08463). In words: Image-based Frizzled1-GFP internalization assay (primary screening assay) in Fzd1GFP-U2OS cells. The assay is classed as cell-based. How it is done:
(§1) To obtain a Frizzled1-GFP stable cell line (Fzd1GFP-U2OS), U2OS cells were transfected with pCS2ratFrizzled1-GFP and pLKO.1 (10:1 ratio by weight), using the Nucleofection transfection protocol from Amaxa, and stable receptor expressing clones were selected using 1.5 μg/mL puromycin in the culture medium. For generating TOPFlash stable cell lines, HEK293 cells were transfected with p8xTOPFlash, the Renilla luciferase plasmid, and pLKO.1 at a ratio by weight of 10:3:1 and stable clones selected using 1 μg/mL puromycin in the growth medium. pLKO.1 was used to confer puromycin resistance to the stable clones.
The plates were incubated overnight at 37° C. in 5% CO2. […]
To measure the number of the internalized vesicles per cell, cytosol was carefully traced to exclude cell membrane. […] The number of internalized vesicles per cell was counted by the Metamorph software. More than 30 cells per sample were analyzed to obtain statistical significance. […]
To determine the time-course of internalization for Frizzled1-GFP receptors, the accumulation of cytosolic puncta/vesicles was measured (FIG. 4A-4E). Internalization was assessed by counting the number of Frizzled1-GFP containing vesicles in the cytosol using the computer program Metamorph, and the results are presented in the graph for the given times (0 hr, n=51 cells; 1 hr, n=69; 2 hr, n=32; 4 hr, n=55, and 6 hr, n=61). […]

Assay [1] deals with LEF/TCF transcription factor reporter (TOPFlash). As to the kind of experiment: TOPFlash reporter assay in HEK293 cells. The following applies: Homo sapiens, HEK293, read-out: TopFlash assay: IC50. The assay is classed as cell-based. The protocol:
as §1
For the TOPFlash Luciferase assay the TOPFlash stable cells were seeded in 150 μL growing medium/well in 96-well plates at 100% confluency. Fifty microliters of conditioned medium containing the chemical compounds to be tested or DMSO were added to each well. […] Thirty microliters of cell lysate were used for measuring luciferase activity in a 96-well plate reader (FluoStar Optima, BMG Labtech, Chicago, Ill.).
LEF/TCF transcription factor reporter (TOPFlash) assay is a general readout for canonical Wnt signaling pathways. […]
The average TOPFlash reporter activity of Wnt3A plus DMSO treatment was set as 100%, and the relative reporter activity of Wnt3A plus the indicated concentration of niclosmide was calculated and plotted. […]
In general terms: Reporter assays use an easily measured gene product as a stand-in for the process of interest.

Molecules are shown by their SMILES.

In general, IC50 refers to the point on the concentration scale where inhibition reaches its midpoint. On to `O=C(Nc1ccccc1)c1ccccc1` [Compound 1-5, benzanilide], for which the “Primary assay at 12.5 μM” value at Frizzled1-GFP was “I”. The IC50 in assay [1] is above 12.5 µM.
